Laboratory results taken from patent US12360111B2, “G protein-coupled receptor screening systems” (The University of North Carolina at Chapel Hill, priority 2018, dated 2025).

The chains behind the UniProt entries cited, without tags or fusion partners. Where a name states a change or a piece, a line headed by the entry shows the natural chain unless it says otherwise.
UniProt P41145: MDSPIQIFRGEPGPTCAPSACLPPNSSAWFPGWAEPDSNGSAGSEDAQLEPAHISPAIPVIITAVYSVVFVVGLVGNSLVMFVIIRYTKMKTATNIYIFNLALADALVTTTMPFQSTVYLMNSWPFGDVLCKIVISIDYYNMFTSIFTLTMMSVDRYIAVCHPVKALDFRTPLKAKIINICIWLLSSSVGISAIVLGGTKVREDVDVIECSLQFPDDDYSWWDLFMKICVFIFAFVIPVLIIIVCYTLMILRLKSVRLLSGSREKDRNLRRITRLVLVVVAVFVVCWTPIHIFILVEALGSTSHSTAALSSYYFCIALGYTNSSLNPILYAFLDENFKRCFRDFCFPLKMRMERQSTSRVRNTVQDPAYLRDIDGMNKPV

Target: T1, KOR, Gαi/o-class TRUPATH sensors (Homo sapiens, UniProt P41145)
T1 construct: expressed in transfected cells
Assay type: cell-based

## COC(=O)[C@@H]1C[C@H](OC(C)=O)C(=O)[C@H]2[C@@]1(C)CC[C@H]1C(=O)O[C@H](c3ccoc3)C[C@]21C [Salvinorin A]
  efficacy across transducers (in words): activated all transducers with equal efficacy
